We go through 1 compound from BindingDB's records for doi:10.1111/cbdd.12508 (North-West University, 2015).

Sequences of proteins named here, by UniProt entry; tags and fusion partners are left off.
UniProt P27338, whole entry: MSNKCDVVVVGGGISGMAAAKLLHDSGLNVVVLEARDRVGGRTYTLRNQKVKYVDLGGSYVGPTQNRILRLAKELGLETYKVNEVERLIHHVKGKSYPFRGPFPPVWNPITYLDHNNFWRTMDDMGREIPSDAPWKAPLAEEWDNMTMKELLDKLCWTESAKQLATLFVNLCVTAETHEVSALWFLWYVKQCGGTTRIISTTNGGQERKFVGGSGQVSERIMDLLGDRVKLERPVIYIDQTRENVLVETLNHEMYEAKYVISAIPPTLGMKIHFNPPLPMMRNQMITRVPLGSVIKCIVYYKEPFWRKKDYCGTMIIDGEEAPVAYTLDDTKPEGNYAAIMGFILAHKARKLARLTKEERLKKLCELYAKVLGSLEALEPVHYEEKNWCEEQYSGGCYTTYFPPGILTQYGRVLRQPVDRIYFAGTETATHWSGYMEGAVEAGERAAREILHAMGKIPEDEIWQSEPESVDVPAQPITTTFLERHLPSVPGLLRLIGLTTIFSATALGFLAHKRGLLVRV

For the assay, the target named is Amine oxidase [flavin-containing] B (Homo sapiens, UniProt P27338). As to the kind of experiment: MAO Inhibition Assay. The procedure: IC50 values for the inhibition of MAO-A and MAO-B were determined using the recombinant human enzymes as enzyme sources, and kynuramine as non-selective MAO substrate. The concentrations of the MAO-generated 4-hydroxyquinoline were measured by fluorescence spectrophotometry (λex = 310; λem = 400 nm). The protocol for these experiments has been reported in detail in recent publications

Broadly, the IC50 is the midpoint of a concentration-inhibition curve. The low end stands for inhibition by little substance, the high end for a need for much substance.

`O=C1CCCc2ccc(OCc3ccc(Cl)cc3)cc21` [7-[(4-Chlorobenzyl)oxy]-3,4-dihydronaphthalen-1(2H)-one (4g)]: 4.1 nM corresponded to half-maximal inhibition (IC50). This counts as single-digit nanomolar.
